Assay [1] can be described thus: dissolution of hydroxyapatite discs following fluoride treatment. Particulars: 1000 ppm F^-, means of triplicate experiments.
Assay [2] is described as follows: rat caries study. The following applies: 1000 ppm F^- topically, 21 days, severe lesions (B & C). The format is in vivo, Osborne-Mendel rats.

sodium monofluorophosphate: the “% Reduction in Dissolution” value came out at 26% in assay [1] (pH 4.0), 23% in assay [1] (pH 5.0), 22% in assay [1] (pH 6.0) and 20% in assay [1] (pH 7.0). For the same substance, the “% Reduction (caries, vs water control)” value in assay [2] was determined as 29.7%. The Caries/Rat in assay [2] (control 5.25, critical difference 0.649 at 95% confidence) was 3.69.

The values above are taken from patent publication US4430324A (priority 1982, dated 1984).
